IC50 and Ki data for 20 molecules are collected here from US7304061B2, “Heterocyclic inhibitors of ERK2 and uses thereof” (Vertex Pharmaceuticals Incorporated, priority 2002, dated 2007).

Amino acid sequences for entries named in this document (tags omitted).
UniProt P28482, whole entry: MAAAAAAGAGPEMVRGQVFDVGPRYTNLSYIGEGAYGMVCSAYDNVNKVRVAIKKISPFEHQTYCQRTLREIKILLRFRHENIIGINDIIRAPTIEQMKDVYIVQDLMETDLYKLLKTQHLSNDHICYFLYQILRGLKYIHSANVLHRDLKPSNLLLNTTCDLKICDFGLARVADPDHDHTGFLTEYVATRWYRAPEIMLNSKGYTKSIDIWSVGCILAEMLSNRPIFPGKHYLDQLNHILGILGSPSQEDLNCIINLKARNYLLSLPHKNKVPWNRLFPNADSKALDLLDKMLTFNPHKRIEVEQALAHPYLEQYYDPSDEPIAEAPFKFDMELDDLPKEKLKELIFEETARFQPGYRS

Molecules are shown by their SMILES. A value given as a limit tells only on which side of the number the result lay.

This assay deals with ERK2 (Homo sapiens, UniProt P28482). Put plainly: ERK2 inhibition assay (spectrophotometric coupled-enzyme assay). The settings on record: activated ERK2 10 nM, 65 μM ATP, 200 μM erktide peptide, 30° C., pH 7.5. On the procedure:
Compounds were assayed for the inhibition of ERK2 by a spectrophotometric coupled-enzyme assay (Fox et al (1998) Protein Sci 7, 2249). In this assay, a fixed concentration of activated ERK2 (10 nM) was incubated with various concentrations of the compound in DMSO (2.5%) for 10 min. at 30° C. in 0.1 M HEPES buffer, pH 7.5, containing 10 mM MgCl2, 2.5 mM phosphoenolpyruvate, 200 μM NADH, 150 μg/mL pyruvate kinase, 50 μg/mL lactate dehydrogenase, and 200 μM erktide peptide. The reaction was initiated by the addition of 65 μM ATP. The rate of decrease of absorbance at 340 nm was monitored. The Ki and IC50 were evaluated from the rate data as a function of inhibitor concentration.
In general, IC50 refers to the midpoint of a concentration-inhibition curve. For `CSc1ncc(C)c(-c2c[nH]c(C(=O)NCc3ccc(F)c(F)c3)c2)n1`, the IC50 was above 1000 nM.

Regarding `Cc1cnc(O)nc1-c1c[nH]c(C(=O)N[C@H](CO)c2ccccc2)c1`, the IC50 is above 1000 nM.

In general, Ki refers to a dissociation constant, usually derived from enzyme kinetics or from competition with a known ligand. Take `Cc1cnc(N2CCOCC2)nc1-c1c[nH]c(C(=O)NCc2cccc(C(F)(F)F)c2)c1`: the Ki was 100 to 1000 nM.

As for `Cc1cnc(N2CCOCC2)nc1-c1c[nH]c(C(=O)NCc2ccc3c(c2)OCO3)c1`, the inhibition constant Ki was above 1000 nM.

With `O=C(N[C@H](CO)c1ccccc1)c1cc(-c2nc(N3CCOCC3)ncc2-c2cc(Cl)cc(Cl)c2)c[nH]1`, the Ki was above 1000 nM.

With `CCCSc1ncc(C)c(-c2c[nH]c(C(=O)N[C@H](CO)c3ccccc3)c2)n1`, the IC50 is below 100 nM.

For `O=C(NCc1ccc2c(c1)OCO2)c1cc(-c2nc(N3CCOCC3)ncc2-c2cc(Cl)cc(Cl)c2)c[nH]1`, the inhibitory constant (Ki) was above 1000 nM.

In the case of `O=C(NCc1cccc(C(F)(F)F)c1)c1cc(-c2nc(N3CCOCC3)ncc2-c2cc(Cl)cc(Cl)c2)c[nH]1`, the Ki was above 1000 nM.

As to `Cc1cnc(-c2ccccc2)nc1-c1c[nH]c(C(=O)N[C@H](CO)c2ccccc2)c1` [Compound I-24, 4-(5-Methyl-2-phenyl-pyrimidin-4-yl)-1H-pyrrole-2 carboxylic acid (2-hydroxy-1-(S)-phenyl-ethyl)-amide], the IC50 was below 100 nM.

For `Cc1ccc(-c2ncc(C)c(-c3c[nH]c(C(=O)N[C@H](CO)c4ccccc4)c3)n2)cc1`, the half-inhibitory concentration (IC50) was below 100 nM.

As for `O=C(NCc1ccc2c(c1)CCO2)c1cc(-c2nc(N3CCOCC3)ncc2-c2cc(Cl)cc(Cl)c2)c[nH]1`, the inhibition constant Ki is above 1000 nM.

For `Cc1cnc(-c2cccnc2)nc1-c1c[nH]c(C(=O)N[C@H](CO)c2ccccc2)c1`, the IC50 was below 100 nM.

For `Cc1ncc(C)c(-c2c[nH]c(C(=O)N[C@H](CO)c3ccccc3)c2)n1`, the inhibition constant (Ki) was below 100 nM.

Regarding `Cc1cnc(SC(C)C)nc1-c1c[nH]c(C(=O)N[C@H](CO)c2ccccc2)c1`, the half-maximal inhibitory concentration (IC50) was below 100 nM.

Consider `Cc1cnc(C2CC2)nc1-c1c[nH]c(C(=O)N[C@H](CO)c2ccccc2)c1`, for which the IC50 was below 100 nM.

`Cc1cnc(-c2ccc(C(N)=O)cc2)nc1-c1c[nH]c(C(=O)N[C@H](CO)c2ccccc2)c1`: the half-maximal inhibitory concentration (IC50) is below 100 nM.

For `CCCS(=O)(=O)c1ncc(C)c(-c2c[nH]c(C(=O)N[C@H](CO)c3ccccc3)c2)n1`, the IC50 was above 1000 nM.

`Cc1cnc(Sc2ccccc2)nc1-c1c[nH]c(C(=O)N[C@H](CO)c2ccccc2)c1`: the concentration for half-maximal inhibition (IC50) is below 100 nM.

As to `Cc1cnc(N2CCOCC2)nc1-c1c[nH]c(C(=O)NCc2ccc(F)c(F)c2)c1`, the Ki is 100 to 1000 nM.

As to `Cc1cnc(N2CCOCC2)nc1-c1c[nH]c(C(=O)NCc2cccc3ccccc23)c1`, the inhibition constant Ki is below 100 nM.
